## scFv variants of Ab-14 (light chain) against a SARS-CoV-2 spike peptide

Reference: Engelhart et al. 2022, doi:10.1038/s41597-022-01779-4. File: FLAb, binding data.

Target peptide (SARS-CoV-2 spike, HR2 region): PDVDLGDISGINAS

The variants keep the heavy chain, the linker and the frameworks of Ab-14 (scFv order VH, a (GGGGS)3 linker, VL).
VH: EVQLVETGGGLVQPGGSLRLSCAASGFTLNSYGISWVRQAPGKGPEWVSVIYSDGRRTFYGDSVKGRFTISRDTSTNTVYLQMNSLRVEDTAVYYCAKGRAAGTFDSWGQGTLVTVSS
VL: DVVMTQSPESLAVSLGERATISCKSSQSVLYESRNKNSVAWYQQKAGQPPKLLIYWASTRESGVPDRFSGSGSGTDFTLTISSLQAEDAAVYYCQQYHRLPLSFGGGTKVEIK

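The parent was found by panning a naive human phage display library on the peptide. Variants in AAYL50 differ from the parent at up to three CDR positions; double and triple changes were sampled at random. Affinity was read by AlphaSeq, a pooled yeast mating assay with surface-displayed partners. Pairs that bind mate more often; barcode pairs of the diploids are counted by sequencing. Read counts were normalised to the haploid input and turned into Kd by a linear fit to BCL2-family pairs of known affinity, for each replicate. Each pool was mated in three replicate cultures.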

Each variant is given by its three light chain CDRs, as the data file delimits them; those of the parent are KSSQSVLYESRNKNSVA, WASTRES, QQYHRLPLS. Values are log10 of the apparent Kd in nM; lower means stronger binding. A mean of the replicates is given; it leaves out those without a signal. "n.d." marks a missing value. The strain was present, yet no cells mated with the target were sequenced in that replicate, which points to weak or no binding. In this assay the parent's reference entry averaged 0.65; its copy inside this library read 1.68.

| CDR-L1 | CDR-L2 | CDR-L3 | log10 Kd (nM) by replicate | log10 Kd (nM), mean | signal with controls |
|---|---|---|---|---|---|
| KSSQSVLYESRNPNSMA | WASTRES | QQYHRLPLS | 1.56 3.23 2.02 | 2.27 | 0/9 |
| KSSQSVLYESRNKNSVL | GASTRES | QQYHRLPLS | 4.32 3.65 4.21 | 4.06 | 3/9 (4.33) |
| KSSQSVLYESRNKNSVA | WASTRES | QQYRVRPLS | n.d. n.d. n.d. | n.d. | 0/9 |
| MSSQSVLYESRNKNSVA | MASTRES | QQYHRLSLS | n.d. 3.50 4.44 | 3.97 | 3/9 (3.42) |
| KSSQSVLYEERNKNSVA | WASTREA | QFYHRLPLS | 0.90 1.15 1.23 | 1.10 | 2/9 (4.37) |
| KSSQSVLYESRNKNSQD | WASTRES | QQYHRLPLS | n.d. n.d. n.d. | n.d. | 0/9 |
| SSSQWVLYESRNKNSVA | WASTREH | QQYHRLPLS | n.d. 2.83 3.82 | 3.33 | 2/9 (3.27) |
| KSSQSVLYESRNKNSVA | WASTREP | LQYARLPLS | 1.05 1.28 1.14 | 1.16 | 1/9 (3.29) |
| KISQSVLYESRNHNSTA | WASTRES | QQYHRLPLS | 2.60 2.24 2.87 | 2.57 | 4/9 (4.24) |
| DSSQSVLYESKNKNSVA | WASTRES | QQYHRLPLS | 1.15 1.22 1.32 | 1.23 | 0/9 |
| KSSQSVLYESRNKNSVA | WADTRES | KQYHPLPLS | n.d. n.d. n.d. | n.d. | 0/9 |
| KSSQSVLYESRNKNSVA | WASTRGS | QQPHRLPLQ | n.d. n.d. n.d. | n.d. | 0/9 |
| KSSQSVLSESRNKNSVA | WASTRES | QQYHMLPLL | 0.61 0.65 0.66 | 0.64 | 1/9 (3.77) |
| KSQQSVLYKSRNKNSVA | WASTRES | QQYHRLPDS | 3.69 3.37 4.13 | 3.73 | 2/9 (4.00) |
| KSGQSVLYESRYKNSVA | WASTREH | QQYHRLPLS | 2.34 2.12 2.35 | 2.27 | 3/9 (4.16) |
| KSSQSVLHQSRNKNSVM | WASTRES | QQYHRLPLS | n.d. n.d. n.d. | n.d. | 1/9 (3.57) |
| KSSQSVLYESRNKQSVA | WAVTRES | QQYHRLPSS | 2.36 2.16 2.14 | 2.22 | 5/9 (5.12) |
| KSSCSVLYESRNKNSVA | WASTRES | QTYFRLPLS | n.d. n.d. n.d. | n.d. | 0/9 |
| KSIQSHLYESRNKNSVA | WASTRES | QQYHRLPLS | 1.21 1.36 1.35 | 1.31 | 2/9 (4.66) |
| KSSQHVLYESRNKWSVA | WASTREN | QQYHRLPLS | 2.62 4.11 4.84 | 3.86 | 1/9 (2.98) |
| QSSQSALYESRNKNSVA | WASTRES | QQYHRLPLQ | 2.23 2.27 2.29 | 2.26 | 2/9 (3.66) |
| KSSASVEYESRNKNSVA | WASWRES | QQYHRLPLS | 1.48 1.44 1.51 | 1.48 | 0/9 |
| KSSQVQLYESRNKMSVA | WASTRES | QQYHRLPLS | 2.00 1.90 2.03 | 1.97 | 3/9 (4.77) |
| KSSQKVLSESRNKLSVA | WASTRES | QQYHRLPLS | n.d. n.d. n.d. | n.d. | 0/9 |
| KSSQSVLYESRNKNSVP | WASTRTM | QQYHRLPLS | n.d. n.d. n.d. | n.d. | 0/9 |
| KSSQSVLYESRNGTSVA | WASTRES | QQYHTLPLS | 3.53 3.00 3.43 | 3.32 | 1/9 (4.48) |
| KSWQSVLYEDRNKNSVA | WASTRES | QSYHRLPLS | 3.35 3.19 3.17 | 3.24 | 2/9 (3.64) |
| KSSQSVLYESRNFNSVA | WASTREW | QQAHRLPLS | n.d. n.d. n.d. | n.d. | 0/9 |
| KSSQSVLYESRNKNSVA | WASTRES | YQYHRLPLS | 0.54 0.85 0.76 | 0.72 | 2/9 (4.13) |
| KSSQSVLWSSRNKNSVA | WANTRES | QQYHRLPLS | 0.89 1.01 0.91 | 0.93 | 0/9 |
| KSSQSVDYESRNKNSVA | WASTRES | QQYHCEPLS | n.d. 4.24 n.d. | 4.24 | 2/9 (3.72) |
| KSKQSVLYCSRNKNSVQ | WASTRES | QQYHRLPLS | 5.24 n.d. n.d. | 5.24 | 2/9 (3.49) |
| KSSRSFCYESRNKNSVA | WASTRES | QQYHRLPLS | 1.24 1.18 1.45 | 1.29 | 0/9 |
| KSSQSVLYESRNKNSVA | WASKRES | QQLHRLPHS | 3.14 2.11 2.83 | 2.69 | 2/9 (3.77) |
| KSSQSVLYESRNKCSAS | WASTRES | QQYHRLPLS | n.d. n.d. n.d. | n.d. | 2/9 (4.04) |
| KSSQSVLYESRNKNSVH | QASTRES | EQYHRLPLS | n.d. n.d. n.d. | n.d. | 1/9 (4.06) |
| KSSQSVLYESRNKPSVA | WASTRES | QQYHRLPCS | 2.84 2.63 2.66 | 2.71 | 1/9 (3.15) |
| KSRQSVLYESRNANSVA | WASTRES | MQYHRLPLS | n.d. n.d. n.d. | n.d. | 0/9 |
| PSSQSVLYESRNKNSVA | WASTRQS | QQYHRLPKS | 5.20 n.d. n.d. | 5.20 | 1/9 (3.71) |
| KSSQSKLYESRNKNSVA | WASFRES | QQYMRLPLS | 0.89 1.00 0.99 | 0.96 | 3/9 (4.90) |
| KSSQSVLYESRNKNSPA | WASTRES | QQTHRLPLS | n.d. 4.96 5.60 | 5.28 | 3/9 (4.02) |

Picked from the list: the 3 lowest averages where every replicate gave a value.

CDR-L1,CDR-L2,CDR-L3,log10 Kd (nM) by replicate,"log10 Kd (nM), mean",signal with controls
KSSQSVLSESRNKNSVA,WASTRES,QQYHMLPLL,0.61 0.65 0.66,0.64,1/9 (3.77)
KSSQSVLYESRNKNSVA,WASTRES,YQYHRLPLS,0.54 0.85 0.76,0.72,2/9 (4.13)
KSSQSVLWSSRNKNSVA,WANTRES,QQYHRLPLS,0.89 1.01 0.91,0.93,0/9

As a blank, each scFv also met three strains without target: over library AAYL50, 18% of these pairings were detected, typically at 4.19 and seldom below 2.99. For each scFv, signals with the empty controls are counted beside the result, with their mean in brackets.